## Permeability data for macrocyclic peptides

Source: CycPeptMPDB (Li et al. 2023), which took these values from Furukawa et al. 2016, doi:10.1021/acs.jmedchem.6b01246.

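Conditions beyond the assay type are not listed; see the original paper. Other peptides of the study may be missing here. Peptides that the database sets to -10, its floor, are left out.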

PAMPA is the parallel artificial membrane permeability assay, which has no cells and reads passive diffusion. Values are log10 P with P in cm/s, so -5 is more permeable than -7.

| structure (SMILES) | PAMPA (log10 cm/s) |
|---|---|
| CCCC[C@@H]1NC(=O)[C@@H](CC(C)C)N(C)C(=O)CN(CC2CCOCC2)C(=O)[C@@H](C)NC(=O)CN(Cc2ccc3c(c2)OCO3)C(=O)[C@@H]2CCCN2C1=O | -6.64 |
| CCCCCN1CC(=O)N(C)[C@@H](CC(C)C)C(=O)N[C@@H](CCCC)C(=O)N2CCC[C@@H]2C(=O)N(CCCOC(C)C)CC(=O)N[C@@H](Cc2ccccc2)C1=O | -5.48 |
| CCCC[C@@H]1NC(=O)[C@@H](CC(C)C)N(C)C(=O)CN(CC2CCCCC2)C(=O)[C@H](Cc2ccccc2)NC(=O)CN(CC)C(=O)[C@@H]2CCCN2C1=O | -5.01 |
| CCCC[C@@H]1NC(=O)[C@@H](CC(C)C)N(C)C(=O)CN(CC2CCOCC2)C(=O)[C@H](C)NC(=O)CN(Cc2ccc3c(c2)OCO3)C(=O)[C@H]2CCCN2C1=O | -5.47 |
| CCCC[C@@H]1NC(=O)[C@H](CC(C)C)NC(=O)CN(CC2CCCCC2)C(=O)[C@@H](C)NC(=O)CN(CCCOC(C)C)C(=O)[C@@H]2CCCN2C1=O | -5.96 |
| CCCC[C@@H]1NC(=O)[C@H](CC(C)C)NC(=O)CN(CC2CCCCC2)C(=O)[C@H](Cc2ccccc2)NC(=O)CN(CC)C(=O)[C@H]2CCCN2C1=O | -4.96 |
| CCCC[C@@H]1NC(=O)[C@@H](CC(C)C)NC(=O)CN(CC2CCOCC2)C(=O)[C@@H](C)NC(=O)CN(CC)C(=O)[C@H]2CCCN2C1=O | -7.14 |
| CCCC[C@@H]1NC(=O)[C@H](CC(C)C)NC(=O)CN(CC2CCCCC2)C(=O)[C@@H](C)NC(=O)CN(Cc2ccc3c(c2)OCO3)C(=O)[C@H]2CCCN2C1=O | -5.56 |
| CCCC[C@@H]1NC(=O)[C@@H](CC(C)C)NC(=O)CN(CC2CCOCC2)C(=O)[C@@H](Cc2ccccc2)NC(=O)CN(CC)C(=O)[C@H]2CCCN2C1=O | -6.15 |
| CCCC[C@@H]1NC(=O)[C@H](CC(C)C)N(C)C(=O)CN(CC2CCCCC2)C(=O)[C@H](Cc2ccccc2)NC(=O)CN(CCCOC(C)C)C(=O)[C@@H]2CCCN2C1=O | -5.39 |
| CCCC[C@@H]1NC(=O)[C@@H](CC(C)C)N(C)C(=O)CN(CC2CCOCC2)C(=O)[C@@H](Cc2ccccc2)NC(=O)CN(CC)C(=O)[C@H]2CCCN2C1=O | -5.70 |
| CCCCCN1CC(=O)N[C@H](CC(C)C)C(=O)N[C@@H](CCCC)C(=O)N2CCC[C@H]2C(=O)N(CC)CC(=O)N[C@H](Cc2ccccc2)C1=O | -5.23 |
| CCCC[C@@H]1NC(=O)[C@@H](CC(C)C)N(C)C(=O)CN(CC2CCOCC2)C(=O)[C@@H](C)NC(=O)CN(CC)C(=O)[C@@H]2CCCN2C1=O | -7.68 |
| CCCCCN1CC(=O)N[C@H](CC(C)C)C(=O)N[C@@H](CCCC)C(=O)N2CCC[C@H]2C(=O)N(CC)CC(=O)N[C@@H](Cc2ccccc2)C1=O | -5.05 |